From patent EP4563146A1 (IRBM S.P.A., priority 2023, dated 2025)
Read-outs that look alike come from different tables or passages of the source.

Key:
[1] = target: DEN2V NS2B-G4SG4-NS3 serine protease (Dengue virus type 2, UniProt Q91H74); test: DEN2V protease inhibition assay
[2] = target: DEN1V NS2B-G4SG4NS3 serine protease (Dengue virus type 1, UniProt P17763); test: DEN1V protease inhibition assay
[3] = target: DEN3V NS2B-G4SG4NS3 serine protease (Dengue virus type 3, UniProt Q6YMS4); test: DEN3V protease inhibition assay
[4] = target: DEN4V NS2B-G4SG4NS3 serine protease (Dengue virus type 4, UniProt P09866); test: DEN4V protease inhibition assay
[5] = read-out: Dengue 2 - NS3 protease
[6] = read-out: Dengue 1 - NS3 protease
[7] = read-out: Dengue 3 - NS3 protease
[8] = read-out: Dengue 4 - NS3 protease

In the case of `NCC12CC(C[n+]3cc([N-]C(=O)Nc4cc(NC(=O)Cc5ccccc5)cc(C(F)(F)F)c4)on3)(C1)C2` [Example 103], the IC50 [1] is reported as under 100 nM, the IC50 [2] is reported as over 20000 nM and the IC50 [3] is reported as 1000 to 20000 nM. It also gave an IC50 [4] of 1000 to 20000 nM.

In the case of `C[n+]1cc([N-]C(=O)Nc2cc(NC(=O)Cc3ccccc3)cc(C(F)(F)F)c2)on1` [Example 4, (3-Methyl-1,2,3-oxadiazol-3-ium-5-yl)((3-(2-phenylacetamido)-5-(trifluoromethyl)phenyl)carbamoyl)amide], the IC50 [1] is reported as 100 to 1000 nM, the IC50 [2] is reported as over 20000 nM and the IC50 [3] is reported as 1000 to 20000 nM. For the same molecule, the IC50 [4] was 1000 to 20000 nM.

Work on `O=C(Cc1ccccc1)Nc1cc(NC(=O)[N-]c2c[n+](Cc3ccc(C(=O)O)cc3)no2)cc(C(F)(F)F)c1` [Example 101, (3-(4-Carboxybenzyl)-1,2,3-oxadiazol-3-ium-5-yl)((3-(2-phenylacetamido)-5-(trifluoromethyl)phenyl)carbamoyl)amide] yielded an IC50 [1] of under 100 nM, an IC50 [2] of 1000 to 20000 nM and an IC50 [3] of 1000 to 20000 nM. For the same molecule, the IC50 [4] was 1000 to 20000 nM.

`O=C(Cc1ccccc1)Nc1cc(NC(=O)[N-]c2c[n+](Cc3ccccn3)no2)cc(C2CC2)c1` [Example 89, ((3-Cyclopropyl-5-(2-phenylacetamido)phenyl)carbamoyl)(3-(pyridin-2-ylmethyl)-1,2,3-oxadiazol-3-ium-5-yl)amide] gave an IC50 [1] of under 100 nM, an IC50 [2] of 1000 to 20000 nM and an IC50 [3] of 100 to 1000 nM. It also gave an IC50 [4] of 1000 to 20000 nM.

`O=C(Cc1ccccc1)Nc1cc(Cl)cc(NC(=O)[N-]c2c[n+](Cc3ccccn3)no2)c1` [Example 58, ((3-Chloro-5-(2-phenylacetamido)phenyl)carbamoyl)(3-(pyridin-2-ylmethyl)-1,2,3-oxadiazol-3-ium-5-yl)amide] gave an IC50 [1] of 100 to 1000 nM, an IC50 [2] of over 20000 nM and an IC50 [3] of 1000 to 20000 nM. The IC50 [4] was over 20000 nM.

In the case of `NC1CC(C[n+]2cc([N-]C(=O)Nc3cc(NC(=O)Cc4ccccc4)cc(C(F)(F)F)c3)on2)C1` (stereo not shown) [Example 118, (3-((3-Aminocyclobutyl)methyl)-1,2,3-oxadiazol-3-ium-5-yl)((3-(2-phenylacetamido)-5-(trifluoromethyl)phenyl)carbamoyl)amide], the IC50 [1] is reported as under 100 nM, the IC50 [2] is reported as 1000 to 20000 nM and the IC50 [3] is reported as 100 to 1000 nM. The IC50 [4] was 1000 to 20000 nM.

`C[C@@H]1C[C@H]1c1cc(NC(=O)Cc2ccccc2)cc(NC(=O)[N-]c2c[n+](Cc3ccccn3)no2)c1` [Example 130, ((3-((1R,2R)-2-Methylcyclopropyl)-5-(2-phenylacetamido)phenyl)-carbamoyl)(3-(pyridin-2-ylmethyl)-1,2,3-oxadiazol-3-ium-5-yl)amide] showed an IC50 [1] of under 100 nM, an IC50 [2] of 1000 to 20000 nM and an IC50 [3] of 100 to 1000 nM. The IC50 [4] was 1000 to 20000 nM.

In the case of `CN(C)[C@H]1CC[C@@H]([n+]2cc([N-]C(=O)Nc3cc(NC(=O)Cc4ccccc4)cc(C(F)(F)F)c3)on2)CC1` [Example 95, (3-((1S,4S)-4-(Dimethylamino)cyclohexyl)-1,2,3-oxadiazol-3-ium-5-yl)((3-(2-phenylacetamido)-5-(trifluoromethyl)phenyl)-carbamoyl)amide], the IC50 [1] is reported as under 100 nM, the IC50 [2] is reported as 1000 to 20000 nM and the IC50 [3] is reported as 100 to 1000 nM. It also gave an IC50 [4] of 1000 to 20000 nM.

With `O=C(Cc1ccccc1)Nc1cc(NC(=O)[N-]c2c[n+]([C@H]3CC[C@@H](CN4C(=O)c5ccccc5C4=O)CC3)no2)cc(C(F)(F)F)c1` [Example 60, (3-((1S,4S)-4-((1,3-Dioxoisoindolin-2-yl)methyl)cyclohexyl)-1,2,3-oxadiazol-3-ium-5-yl)((3-(2-phenylacetamido)-5-(trifluoromethyl)-phenyl)carbamoyl)amide] the IC50 [1] was 100 to 1000 nM, the IC50 [2] was over 20000 nM and the IC50 [3] was 1000 to 20000 nM. For the same molecule, the IC50 [4] was over 20000 nM.

`COc1ncc(-c2ccc(C[n+]3cc([N-]C(=O)Nc4cc(NC(=O)Cc5ccccc5)cc(C(F)(F)F)c4)on3)nc2)c(C)n1` [Example 13, (3-((5-(2-Methoxy-4-methylpyrimidin-5-yl)pyridin-2-yl)methyl)-1,2,3-oxadiazol-3-ium-5-yl)((3-(2-phenylacetamido)-5-(trifluoromethyl)phenyl)carbamoyl)amide] was tested, and the IC50 [1] was under 100 nM, the IC50 [2] was 100 to 1000 nM and the IC50 [3] was under 100 nM. It also gave an IC50 [4] of under 100 nM.

For `O=C([N-]c1c[n+]([C@H]2CC[C@@H](CNCC(F)(F)F)CC2)no1)Nc1cc(N2CCC(c3ccccc3)C2=O)cc(C(F)(F)F)c1` (stereo partly drawn) [Example 135, ((3-(2-Oxo-3-phenylpyrrolidin-1-yl)-5-(trifluoromethyl)phenyl)carbamoyl)(3-((1S,4S)-4-(((2,2,2-trifluoroethyl)amino)methyl)-cyclohexyl)-1,2,3-oxadiazol-3-ium-5-yl)amide], the IC50 [1] was 100 to 1000 nM, the IC50 [2] was over 20000 nM and the IC50 [3] was 1000 to 20000 nM. The IC50 [4] was 1000 to 20000 nM.

In the case of `O=C(Cc1ccccc1)Nc1cc(NC(=O)[N-]c2c[n+](Cc3ccc(CO)cn3)no2)cc(C2CC2)c1` [Example 129, ((3-Cyclopropyl-5-(2-phenylacetamido)phenyl)-carbamoyl)(3-((5-(hydroxymethyl)pyridin-2-yl)methyl)-1,2,3-oxadiazol-3-ium-5-yl)amide], the IC50 [1] is reported as under 100 nM, the IC50 [2] is reported as 1000 to 20000 nM and the IC50 [3] is reported as under 100 nM. For the same molecule, the IC50 [4] was 100 to 1000 nM.

Work on `COc1ncc(-c2ccc(C[n+]3cc([N-]C(=O)Nc4cc(NC(=O)C5CCCC5)cc(C(F)(F)F)c4)on3)cc2)c(C)n1` [Example 18] yielded an IC50 [1, 5] of under 100 nM, an IC50 [2, 6] of over 20000 nM and an IC50 [3, 7] of 100 to 1000 nM. It also gave an IC50 [4, 8] of 100 to 1000 nM.

With `O=C(Cc1ccccc1)Nc1cc(NC(=O)[N-]c2c[n+](Cc3ccccn3)no2)cc(C(F)(F)F)c1` [Example 7, ((3-(2-Phenylacetamido)-5-(trifluoromethyl)phenyl)carbamoyl)(3-(pyridin-2-ylmethyl)-1,2,3-oxadiazol-3-ium-5-yl)amide] the IC50 [1] was under 100 nM, the IC50 [2] was 1000 to 20000 nM and the IC50 [3] was 100 to 1000 nM. For the same molecule, the IC50 [4] was 100 to 1000 nM.

`COc1ncc(-c2ccc(C[n+]3cc([N-]C(=O)Nc4cc(NC(C)=O)cc(C(F)(F)F)c4)on3)cc2)c(C)n1` [Example 11] showed an IC50 [1, 5] of 100 to 1000 nM, an IC50 [2, 6] of over 20000 nM and an IC50 [3, 7] of 1000 to 20000 nM. For the same molecule, the IC50 [4, 8] was 1000 to 20000 nM.

Molecule `CN(C)[C@H]1CC[C@H]([n+]2cc([N-]C(=O)Nc3cc(NC(=O)Cc4ccccc4)cc(C(F)(F)F)c3)on2)CC1` [Example 96, (3-((1R,4R)-4-(dimethylamino)cyclohexyl)-1,2,3-oxadiazol-3-ium-5-yl)((3-(2-phenylacetamido)-5-(trifluoromethyl)phenyl)-carbamoyl)amide] has an IC50 [1] of under 100 nM, an IC50 [2] of 1000 to 20000 nM and an IC50 [3] of 100 to 1000 nM. It also gave an IC50 [4] of 1000 to 20000 nM.

Work on `Cc1noc(C)c1-c1ccc([C@H](CN)[n+]2cc([N-]C(=O)Nc3cc(NC(=O)Cc4ccccc4)cc(C(F)(F)F)c3)on2)cc1` [Example 23, (R)-(3-(2-Amino-1-(4-(3,5-dimethylisoxazol-4-yl)phenyl)ethyl)-1,2,3-oxadiazol-3-ium-5-yl)((3-(2-phenylacetamido)-5-(trifluoromethyl)phenyl)-carbamoyl)amide] yielded an IC50 [1] of under 100 nM, an IC50 [2] of 1000 to 20000 nM and an IC50 [3] of under 100 nM. The IC50 [4] was 100 to 1000 nM.

`Cc1nc(N)ncc1-c1ccc(C[n+]2cc([N-]C(=O)Nc3cc(NC(=O)Cc4ccccc4)cc(C(F)(F)F)c3)on2)nc1` [Example 25, (3-((5-(2-Amino-4-methylpyrimidin-5-yl)pyridin-2-yl)methyl)-1,2,3-oxadiazol-3-ium-5-yl)((3-(2-phenylacetamido)-5-(trifluoromethyl)phenyl)carbamoyl)amide] was tested, and the IC50 [1] was under 100 nM, the IC50 [2] was 100 to 1000 nM and the IC50 [3] was 100 to 1000 nM. It also gave an IC50 [4] of 1000 to 20000 nM.

`CN1CCCCC1C[n+]1cc([N-]C(=O)Nc2cc(NC(=O)Cc3ccccc3)cc(C3CC3)c2)on1` (stereo not shown) [Example 127] gave an IC50 [1, 5] of under 100 nM, an IC50 [2, 6] of 1000 to 20000 nM and an IC50 [3, 7] of 100 to 1000 nM. It also gave an IC50 [4, 8] of 1000 to 20000 nM.
